Values joined by “and” are separate entries in the source; they are usually repeats but may differ in a detail not shown here. Equal values may be shown once. Read-outs that look alike come from different tables or passages of the source.
Experiments:
[1] = molecular target: T1, Kv1.3 (Mus musculus, UniProt P16390); assay: Whole-cell patch-clamp block of Kv1.3 currents in stable Kv1.3-transfected cell lines; format: cell-based
T1 construct: expressed in transfected cells
Source text: FIGS. 3A and 3B show a comparison of the Kv1.3 channel-blocking potency of ShK-186 and two labeled analogs, ShK-221-gadolinium (ShK-221-Gd) and ShK-221-indium (ShK-221-In): (FIG. 3A) Representative whole-cell Kv1.3 currents in the absence and presence of ShK-221-Gd. (FIG. 3B) Dose-response curve showing the effect of ShK-186, ShK-221-Gd and ShK-221-In on Kv1.3 currents. Stable Kv1.3-transfected cell lines were used for this study (Beeton, et al. Mol Pharmacol 67:1369-1381 (2005), incorporated by reference herein for its teachings regarding the same). Electrophysiological recordings were carried out in the whole-cell configuration of the patch-clamp technique as described (Beeton, et al. 2005 and Wolff, H, et al., Proc. Natl. Acad. Sci. USA. 97:8151-6 (2000), incorporated by reference herein for its teachings regarding the same). The external solution was sodium Ringer and the pipette solution was KF (300 mOsm). Kv1.3 currents were elicited by 200-ms depolarizing pulses from a holding potential of −80 to 40 mV. ShK-186, ShK-221-Gd and ShK-221-In were each tested at several concentrations. The reduction in peak current at 40 mV for each concentration was used to generate a dose-response curve using Origin software (OriginLab Corp., Northampton, Mass.).

Amino acid sequences for entries named in this document (tags omitted).
UniProt P16390, whole entry: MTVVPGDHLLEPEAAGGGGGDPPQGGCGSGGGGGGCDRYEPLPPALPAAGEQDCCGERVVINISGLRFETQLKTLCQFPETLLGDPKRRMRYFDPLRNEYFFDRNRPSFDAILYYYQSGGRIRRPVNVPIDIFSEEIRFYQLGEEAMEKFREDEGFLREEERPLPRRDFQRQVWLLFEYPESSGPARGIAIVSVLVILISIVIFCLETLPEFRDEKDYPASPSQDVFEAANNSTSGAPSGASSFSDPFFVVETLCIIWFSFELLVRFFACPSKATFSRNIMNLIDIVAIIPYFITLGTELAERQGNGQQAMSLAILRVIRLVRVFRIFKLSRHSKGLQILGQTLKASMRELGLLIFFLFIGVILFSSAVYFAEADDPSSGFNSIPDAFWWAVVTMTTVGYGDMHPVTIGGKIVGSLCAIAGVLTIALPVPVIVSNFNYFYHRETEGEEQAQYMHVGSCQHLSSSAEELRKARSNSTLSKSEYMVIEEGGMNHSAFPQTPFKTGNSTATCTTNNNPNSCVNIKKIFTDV

[2] = Biodistribution of 111In-ShK-221 (SPECT/CT, whole blood radioactivity) after single subcutaneous injection, monkey; format: in vivo, squirrel monkey (Saimiri boliviensis); conditions: for Maximum Scan Period / Maximum concentration in tissue / half-life: 35 μg/kg s.c.; for half-life: injection site
Experimental: Non-naïve squirrel monkeys (Saimiri boliviensis) were between 2 and 5 years of age and were transferred from the MPI Research (Mattawan, Mich., USA) stock colony. The squirrel monkey was of Bolivian origin and provided by the University of Texas MD Anderson Cancer Center (Houston, Tex. USA). Animals were housed individually in stainless steel cages in an environmentally controlled room. The monkeys were provided environmental enrichment; fluorescent lighting was provided 12 hours per day. Temperature was maintained between 64 and 84° C.; humidity was 30-70%. Animals were provided Certified Primate Diet (PMI Nutrition International, Inc., St. Louis, Mo., USA) twice daily. Primatreats® and other enrichment foods were provided on a regular basis. Water was available ad libitum.
(§1) SPECT/CT scanning of radiolabeled ShK-221. ShK-221 (100 μg) was radiolabelled with 2 mCi 111 Indium chloride (GE Healthcare, Arlington Heights, Ill. USA) in a 300 μL reaction containing 50 mM sodium acetate, pH5.0 for 30 min at 95° C. The reaction was quenched by the addition of EDTA to a final concentration of 50 mM, and the radiolabeling efficiency was assessed by reverse-phase HPLC (Luna 5μ C18(2) 100 A 250×4.6 mm column, Phenomenex, Torrance, Calif. USA) on an Agilent 1100 system using an IN/US Systems Gamma RAM Model 4 radio-HPLC detector (LabLogic Systems, Brandon, Fla. USA). The labeling efficiency varied from 89-98% by this method. SPECT/CT scanning (NanoSPECT/CT Preclinical Imager, Mediso, Budapest, Hungary) was carried out on anesthetized animals in four 15 minute scans during the first hour and one scan each at 4, 8, 24, 48, 72, 120 and 160 hours post dose. The individual projection frame time for each helical SPECT was set such that the duration of each scan would last for approximately 15 to 45 minutes (varying by time-point to account for isotope decay) and allow for significant collection of statistics within each frame. The characteristic peaks detected from the spectra for 111In were 245 and 171 keV (primary and secondary, respectively). The resulting projection data were reconstructed after each scan using an iterative model that takes advantage of the pinhole geometry to achieve a resolution of approximately 2 mm.
(§2) Approximately 10 μL blood samples were collected after each scan and the amount of radioactivity in the sample was measured using a Wallac Wizard 1470 scintillation counter (Perkin Elmer, Waltham, Mass. USA). Drug concentrations were computed by taking account of the specific activity of the administered dose, the half-life of 111In (67.3 hours) and the counting efficiency of the instrument.
(§3) Statistical and computational analysis. Statistical analysis was carried out using the paired t-test. Goodness of model fit was determined using the R^2 statistic. Pharmacokinetic calculations were as follows: Cmax and Tmax were as observed in the dataset. AUC was computed using a linear trapezoidal method. The terminal elimination half-life was computed from the slope of the regression with the best adjusted R^2 value. AUCt-∞ was calculated by dividing the last observed drug concentration by the terminal elimination slope.
Results of ADME studies with a radiolabeled analog of ShK-186. ShK-186 contains a single iodinatable tyrosine at position 23. However, iodine incorporation into the ring, which is predicted to interact within the pore region of the Kv1.3 channel (Pennington et al., Biochemistry 35:16407-16411, 1996), results in disruption of the channel binding properties of the drug. The amino terminus of ShK-198 was therefore modified with a six-carbon linker attached via a peptide bond to one of the carboxylic acids of a DOTA chelate (FIG. 2A). […] The radiolabeling efficiency ranged from 89-98% over the series of experiments as determined by HPLC. Biodistribution of radiolabeled ShK-221 was evaluated by SPECT imaging continuously for the first hour post-dose, and then at 4, 8, 24, 48, 72, 120, and 160 h. […]

[3] = Biodistribution of 111In-ShK-221 (SPECT/CT, whole blood radioactivity) after single subcutaneous injection, rat; format: in vivo, Sprague Dawley rat; conditions: for half-life: Sprague Dawley [Crl:CD® SD], injection site, 100 μg/kg s.c.; for tissue uptake: during the first hour
Experimental: Animals. Sprague Dawley [Crl:CD® SD] rats (6-9 weeks old) were purchased from Charles River Laboratories (Wilmington, Mass., USA) and housed in a temperature (64-79° C.) and humidity (30-70%) controlled facility. Food and water were ad libitum.
as §1, §2, §3
Results of ADME studies with a radiolabeled analog of ShK-186. ShK-186 contains a single iodinatable tyrosine at position 23. However, iodine incorporation into the ring, which is predicted to interact within the pore region of the Kv1.3 channel (Pennington et al., Biochemistry 35:16407-16411, 1996), results in disruption of the channel binding properties of the drug. The amino terminus of ShK-198 was therefore modified with a six-carbon linker attached via a peptide bond to one of the carboxylic acids of a DOTA chelate (FIG. 2A). […] The radiolabeling efficiency ranged from 89-98% over the series of experiments as determined by HPLC. Biodistribution of radiolabeled ShK-221 was evaluated by SPECT imaging continuously for the first hour post-dose, and then at 4, 8, 24, 48, 72, 120, and 160 h. Background levels in the detection system were approximately 0.1 μCi/m^3 (˜5 ng/m^3 of ShK-221 at the initial time point and 26 ng/m^3 at the last time point). Blood samples were collected following each scan, and total radioactivity in whole blood was measured by scintillation counting. Computed tomography was performed at each time point to enable colocalization of the radiolabel with key anatomical structures.

In the case of `CC[C@H](C)[C@@H]1NC(=O)[C@@H](NC(=O)[C@H](CO)NC(=O)[C@H](CCCNC(=N)N)NC(=O)COCCOCCNC(=O)[C@@H](N)Cc2ccc(OP(=O)(O)O)cc2)CSSC[C@@H](C(N)=O)NC(=O)[C@H]([C@@H](C)O)NC(=O)CNC(=O)[C@@H]2CSSC[C@@H]3NC(=O)[C@H](CCC(N)=O)NC(=O)[C@H](Cc4ccccc4)NC(=O)[C@H](C)NC(=O)[C@H]([C@@H](C)O)NC(=O)[C@H](CSSC[C@H](NC(=O)[C@H](Cc4ccccc4)NC(=O)[C@H](CO)NC(=O)[C@H](CC(C)C)NC(=O)[C@H](CCCNC(=N)N)NC(=O)[C@H](Cc4ccc(O)cc4)NC(=O)[C@H](CCCCN)NC(=O)[C@H](CCSC)NC(=O)[C@H](CO)NC(=O)[C@H](Cc4c[nH]cn4)NC(=O)[C@H](CCCCN)NC3=O)C(=O)N[C@@H](CCCNC(=N)N)C(=O)N[C@@H](CCCCN)C(=O)N[C@@H]([C@@H](C)O)C(=O)N2)NC(=O)[C@H](CCCNC(=N)N)NC(=O)[C@H](CO)NC(=O)[C@H](CCCCN)NC(=O)[C@@H]2CCCN2C(=O)[C@H]([C@@H](C)CC)NC(=O)[C@H]([C@@H](C)O)NC(=O)[C@H](CC(=O)O)NC1=O` [ShK-186], the IC50 [1] is reported as 0.069 ± 0.00401 nM.

In the case of `CC[C@H](C)[C@@H]1NC(=O)[C@@H](NC(=O)[C@H](CO)NC(=O)[C@H](CCCNC(=N)N)NC(=O)COCCOCCNC(=O)[C@H](Cc2ccc(O)cc2)NC(=O)CCCCCNC(=O)CN2CCN(CC(=O)O)CCN(CC(=O)O)CCN(CC(=O)O)CC2)CSSC[C@@H](C(N)=O)NC(=O)[C@H]([C@@H](C)O)NC(=O)CNC(=O)[C@@H]2CSSC[C@@H]3NC(=O)[C@H](CCC(N)=O)NC(=O)[C@H](Cc4ccccc4)NC(=O)[C@H](C)NC(=O)[C@H]([C@@H](C)O)NC(=O)[C@H](CSSC[C@H](NC(=O)[C@H](Cc4ccccc4)NC(=O)[C@H](CO)NC(=O)[C@H](CC(C)C)NC(=O)[C@H](CCCNC(=N)N)NC(=O)[C@H](Cc4ccc(O)cc4)NC(=O)[C@H](CCCCN)NC(=O)[C@H](CCSC)NC(=O)[C@H](CO)NC(=O)[C@H](Cc4c[nH]cn4)NC(=O)[C@H](CCCCN)NC3=O)C(=O)N[C@@H](CCCNC(=N)N)C(=O)N[C@@H](CCCCN)C(=O)N[C@@H]([C@@H](C)O)C(=O)N2)NC(=O)[C@H](CCCNC(=N)N)NC(=O)[C@H](CO)NC(=O)[C@H](CCCCN)NC(=O)[C@@H]2CCCN2C(=O)[C@H]([C@@H](C)CC)NC(=O)[C@H]([C@@H](C)O)NC(=O)[C@H](CC(=O)O)NC1=O` [^111In-ShK-221, metal not drawn], the “Duration of therapeutically meaningful blood concentrations after a single dose” value ([2]; monkey) is reported as ≤ 7 days, the “Time drug levels remained above ~200 pM in blood” value ([2]; monkey) is reported as “approximately 7 days” and the “Time blood concentration above 80% saturation concentration (233 pM)” value ([2]; monkey (FIG. 1F legend, monkey and rat)) is reported as 120 hours. For the same molecule, the “Drug concentration in whole blood” value ([2]; monkey, 1 hour after 35 μg/kg) was “approximately 15 nM”, the “Maximum Scan Period” value ([2]; monkey, Bladder) was 0.75 to 1 h and 0.75 to 1.0 h and the “Maximum concentration in tissue” value ([2]; monkey, Bladder) was 0.34 % injected dose/g and 0.338 % injected dose/g. For the same molecule, the “Maximum Scan Period” value ([2]; monkey, Brain) was 0.75 to 1.0 h, the “Maximum Scan Period” value ([2]; monkey, Heart) was 0.75 to 1.0 h and the “Maximum concentration in tissue” value ([2]; monkey, Heart) was < 0.1 % injected dose/g and 0.093 % injected dose/g. The “Maximum Scan Period” value ([2]; monkey, Injection Site) was 0 to 0.25 h, the “Maximum concentration in tissue” value ([2]; monkey, Injection Site) was 17.3 % injected dose/g and the “Maximum Scan Period” value ([2]; monkey, Kidneys) was 0.75 to 1.0 h. The “Maximum Scan Period” value ([2]; monkey, Liver) was 0.75 to 1 h and 0.75 to 1.0 h, the “Maximum concentration in tissue” value ([2]; monkey, Liver) was 0.166 % injected dose/g and the “Maximum Scan Period” value ([2]; monkey, Muscle) was 0.5 to 0.75 h. The tissue uptake dose ([2]; monkey, bladder, sc, 35 ug/kg, total radioactivity, read-out: Radioactivity in bladder at earliest time points) was 1 %ID, the half-life ([2]; monkey, sc, 35 ug/kg, monkey, read-out: Injection site initial half-life) was 1 to 1.5 h and the half-life ([2]; monkey, sc, 35 ug/kg, monkey, read-out: Injection site terminal half-life) was > 48 h. For the same molecule, the “Time 80% of Kv1.3 channels in whole blood expected to be bound by drug” value ([2]; monkey, post-dose) was “approximately 5 days”, the “Duration of therapeutically meaningful blood concentrations after a single dose” value [3] was “up to 5 days” and the “Time drug levels remained above ~200 pM in blood” value [3] was ~3 days. For the same molecule, the “Drug concentration in whole blood” value ([3]; 1 hour post dose of 100 μg/kg) was “approximately 14 nM”, the half-life ([3]; sc, 100 ug/kg, read-out: Injection site initial half-life) was 1 to 1.5 h and the half-life ([3]; sc, 100 ug/kg, read-out: Injection site terminal half-life) was > 48 h. The tissue uptake ([3]; Sprague Dawley, bladder, sc, 100 ug/kg, total radioactivity, read-out: Radioactive label in bladder) was 9.4 %ID/g, the tissue uptake dose ([3]; Sprague Dawley, bladder, sc, 100 ug/kg, total radioactivity, read-out: Radioactivity in bladder at earliest time points) was 17 %ID and the tissue uptake ([3]; Sprague Dawley, kidney, sc, 100 ug/kg, total radioactivity, read-out: Radioactive label in kidney) was 2.9 %ID/g. The tissue uptake ([3]; Sprague Dawley, liver, sc, 100 ug/kg, total radioactivity, read-out: Radioactive label in liver) was 0.4 %ID/g and the “Time 80% of Kv1.3 channels in whole blood expected to be bound by drug” value ([3]; post-dose) was 3 to 5 days.

Reference: patent US9878058B2, “SHK-based pharmaceutical compositions and methods of manufacturing and using the same” (Kineta One, LLC, priority 2011, dated 2018)
